The entries are a selection whose mix differs from that of the whole data set. The source made the active and inactive calls. Calls follow the shape of the dose curve; as a rule, active = well fitted inhibition curve with a large enough effect; inconclusive = small, poorly fitted or top-dose-only effect; inactive = no such curve, though single readings can be large or run the other way.
Target: Thioredoxin reductase 1, cytoplasmic (Rattus norvegicus) (UniProt O89049)
Assay: qHTS Assay for Substrates of Mammalian Selenoprotein Thioredoxin Reductase 1 (TrxR1): qHTS; also: nearly all actives have a fitted effect of over 50% in size
Settings: purified TrxR1 substrate turnover, NADPH consumption readout; at 114 µM (top of the series) unless noted
% is scaled to controls: 0 for no effect and ±100 for the full control effect.

The chains behind the UniProt entries cited, without tags or fusion partners.
UniProt O89049, whole entry: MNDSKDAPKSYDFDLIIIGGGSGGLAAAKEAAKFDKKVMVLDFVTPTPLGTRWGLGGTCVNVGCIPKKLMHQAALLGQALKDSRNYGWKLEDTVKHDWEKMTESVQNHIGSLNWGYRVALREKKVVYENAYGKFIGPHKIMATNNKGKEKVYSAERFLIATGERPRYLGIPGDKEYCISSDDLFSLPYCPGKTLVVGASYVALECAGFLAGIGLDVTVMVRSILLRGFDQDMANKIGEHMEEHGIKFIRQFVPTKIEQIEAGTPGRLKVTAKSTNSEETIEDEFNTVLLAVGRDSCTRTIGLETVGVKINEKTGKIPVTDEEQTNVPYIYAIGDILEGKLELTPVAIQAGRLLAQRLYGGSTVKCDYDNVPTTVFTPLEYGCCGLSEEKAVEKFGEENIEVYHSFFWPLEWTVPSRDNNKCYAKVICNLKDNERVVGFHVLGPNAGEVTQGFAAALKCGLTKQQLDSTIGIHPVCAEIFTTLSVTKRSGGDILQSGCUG

Compound | activity change, negative = substrate turnover
CN(C)C(=O)c1c([N+](=O)[O-])cc([N+](=O)[O-])cc1[N+](=O)[O-] | inactive: -0.301%
COc1ccc(OP(C)(=O)Nc2ccc(Br)cc2)cc1 (stereo not given) | inactive: -1.2%
CCN(CC)CC(O)COC(=O)C(O)(c1ccccc1)C1CCCCC1 (stereo not given) | inactive: -4.16%
N#[O+].[C-]#N.[C-]#N.[C-]#N.[C-]#N.[C-]#N.[Fe+2].[Na+].[Na+] | inactive: 5.5% [at 57.1 µM]
O=C(OCCCN1CCCC1)C(O)(c1ccccc1)C1CCCCC1 (stereo not given) | inactive: -1.12% [at 57.1 µM]
COc1ccccc1OP(C)(=O)Nc1c(C)n(C)n(-c2ccccc2)c1=O (stereo not given) | inactive: 6.35%
CCc1ccc(OP(C)(=O)Nc2cccnc2)cc1 (stereo not given) | inactive: 3.46%
CP(=O)(Oc1ccccc1)N1CCOC1=O (stereo not given) | inactive: 2.77% [at 57.1 µM]
Nc1ccc2c(ccc3cccnc32)n1.O=[N+]([O-])c1cc([N+](=O)[O-])c(O)c([N+](=O)[O-])c1 | inactive: 10.9%
CCOC(=O)c1ccc(NP(C)(=O)Oc2ccc(Cl)cc2)cc1 (stereo not given) | inactive: -6.71%
CP(=O)(OC12CC3CC(CC(C3)C1)C2)OC12CC3CC(CC(C3)C1)C2 | inactive: 6.36%
O=[N+]([O-])c1ccc(OP2(=O)COCCO2)cc1 (stereo not given) | inactive: -19.1%
Cc1cc(-c2cccc3ccccc23)c(C)cn1.O=[N+]([O-])c1cc([N+](=O)[O-])c(O)c([N+](=O)[O-])c1 | inactive: -18.6%
Cc1c(C(c2ccc3c(c2)OCO3)c2c(C)n(C)n(-c3ccccc3)c2=O)c(=O)n(-c2ccccc2)n1C.O=[N+]([O-])c1cc([N+](=O)[O-])c(O)c([N+](=O)[O-])c1 | inactive: 6.99%
COc1ccc(OP(C)(=O)Nc2cccc(Br)c2)cc1 (stereo not given) | inactive: -3.35%
CN(C)CCOC(=O)C(O)(c1ccccc1)C1CCCCC1 (stereo not given) | inactive: -2.92%
COc1ccc(NP(C)(=O)Oc2ccccc2OC)cc1 (stereo not given) | inactive: 3.92% [at 57.1 µM]
CP(=O)(Nc1ccc2c(c1)OCCO2)Oc1ccccc1 (stereo not given) | inactive: 11.3% [at 57.1 µM]
Cc1ccccc1NP(C)(=O)Nc1ccccc1C | inactive: 9.82% [at 57.1 µM]
CP(=O)(Nc1ccc(SC(F)(F)F)cc1)Oc1ccc(F)cc1 (stereo not given) | inactive: -6.27%
CCOP(C)(=S)SCC(=O)NC(C)(CC)C(=O)O (stereo not given) | inactive: 22.7% [at 57.1 µM]
O=C(OCCN1CCN(CCOCc2ccccc2)CC1)C(O)(c1ccccc1)c1ccccc1 | inactive: -6.05%
CP(=O)(Nc1ccccc1F)Oc1ccccc1 (stereo not given) | inactive: 2.08%
CC(C)c1ccc(OP(C)(=O)Nc2ccc(SC(F)(F)F)cc2)cc1 (stereo not given) | inactive: -9.98%
Cc1c([N+](=O)[O-])cc([N+](=O)[O-])c(Br)c1[N+](=O)[O-] | inactive: -21.9%
CCN(CC)CCCOC(=O)C(O)(c1ccccc1)C1CCCCC1 (stereo not given) | inactive: 4.71%
CP(=O)(Nc1ccccc1)Oc1ccc(F)cc1 (stereo not given) | inactive: -6.38%
CCCCCOc1ccc(NP(C)(=O)Oc2ccc(Cl)cc2Cl)cc1 (stereo not given) | inactive: -8.65%
CCOC(=O)c1ccc(NP(C)(=O)Oc2ccc(F)cc2)cc1 (stereo not given) | inactive: 1.59%
COc1ccc(OP(C)(=O)Nc2ccc(SC(F)(F)F)cc2)cc1 (stereo not given) | inactive: -2.35% [at 57.1 µM]

Reference: PubChem BioAssay AID588456 (National Center for Advancing Translational Sciences (NCATS), 2011)
